Data taken from patent publication US9732367B2, “Cell lines” (MEDIMMUNE LIMITED, priority 2012, dated 2017).

Legend:
[1] = tested on: PC3; test: In vitro cytotoxicity assay, PC3; assay type: cell-based
[2] = tested on: SKOV3; test: In vitro cytotoxicity assay, SKOV3; assay type: cell-based, human

Substance	cytotoxic activity in words [1]	EC50 PC3 ([1]; Table 5, positional 4D5-AF ADCs)	cytotoxic activity in words [2]
Herceptin	no cytotoxic effect	DNC	
Herceptin-CUAAC-AF ADC	did not show cytotoxicity at the examined concentrations		
Herceptin-SPAAC-AF ADC	did not show cytotoxicity at the examined concentrations		efficiently killed by the ADC
